# Literature values in patent US20220218838A1, “ADC FOR A TREATMENT CONCOMITANT WITH OR SUBSEQUENT TO DOCETAXEL” (PIERRE FABRE MEDICAMENT, priority 2019, published 2022).
# Protein sequences, listed by entry. Tags and fused reporters are not part of them. Residues count along the entry.
# UniProt P08069, 741-1367 partner limits assumed: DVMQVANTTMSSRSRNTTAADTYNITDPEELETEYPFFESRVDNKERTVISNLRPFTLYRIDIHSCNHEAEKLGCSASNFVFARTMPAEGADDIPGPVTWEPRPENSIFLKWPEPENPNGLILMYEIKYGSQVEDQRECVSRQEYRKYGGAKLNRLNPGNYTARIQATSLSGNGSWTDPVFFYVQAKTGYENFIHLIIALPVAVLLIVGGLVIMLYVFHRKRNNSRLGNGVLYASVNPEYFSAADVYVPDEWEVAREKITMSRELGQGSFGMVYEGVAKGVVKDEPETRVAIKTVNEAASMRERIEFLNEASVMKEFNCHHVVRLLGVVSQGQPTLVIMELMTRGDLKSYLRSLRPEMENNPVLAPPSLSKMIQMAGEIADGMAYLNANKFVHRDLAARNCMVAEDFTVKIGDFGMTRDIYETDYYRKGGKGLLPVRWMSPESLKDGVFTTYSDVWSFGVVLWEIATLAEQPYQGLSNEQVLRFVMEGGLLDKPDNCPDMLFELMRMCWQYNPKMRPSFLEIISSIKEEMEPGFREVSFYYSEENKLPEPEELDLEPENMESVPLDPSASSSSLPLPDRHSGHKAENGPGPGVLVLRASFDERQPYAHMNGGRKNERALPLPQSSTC
# UniProt P08069, 31-736 limits assumed: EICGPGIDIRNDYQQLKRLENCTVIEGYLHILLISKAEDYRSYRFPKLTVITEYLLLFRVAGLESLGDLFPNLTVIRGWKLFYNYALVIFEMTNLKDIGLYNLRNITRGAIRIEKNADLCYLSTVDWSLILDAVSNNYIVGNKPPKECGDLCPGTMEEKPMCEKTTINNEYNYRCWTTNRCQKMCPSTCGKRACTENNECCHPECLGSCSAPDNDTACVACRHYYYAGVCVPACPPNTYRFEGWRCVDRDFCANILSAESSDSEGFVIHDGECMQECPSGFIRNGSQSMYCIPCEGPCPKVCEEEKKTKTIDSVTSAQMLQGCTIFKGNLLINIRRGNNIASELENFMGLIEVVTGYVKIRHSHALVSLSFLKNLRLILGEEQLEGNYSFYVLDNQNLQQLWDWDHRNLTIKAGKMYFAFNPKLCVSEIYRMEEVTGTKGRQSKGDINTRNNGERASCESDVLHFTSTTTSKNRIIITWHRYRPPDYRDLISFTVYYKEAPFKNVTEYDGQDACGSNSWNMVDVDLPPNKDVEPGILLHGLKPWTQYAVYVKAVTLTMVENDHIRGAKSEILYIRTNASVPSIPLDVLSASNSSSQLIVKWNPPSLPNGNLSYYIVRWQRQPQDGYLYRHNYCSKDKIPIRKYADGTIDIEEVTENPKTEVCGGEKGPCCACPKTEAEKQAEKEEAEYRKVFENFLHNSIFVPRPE
# Target: IGF-IR (Homo sapiens, UniProt P08069)
# Settings: read-out: Kd of binding to IGF-IR; cited from earlier work
substance,measurement,value
IGF1: natural ligand bound by IGF-IR,Kd,~1 nM
